Protein sequences, listed by entry. Tags and fused reporters are not part of them.
UniProt P41143, whole entry: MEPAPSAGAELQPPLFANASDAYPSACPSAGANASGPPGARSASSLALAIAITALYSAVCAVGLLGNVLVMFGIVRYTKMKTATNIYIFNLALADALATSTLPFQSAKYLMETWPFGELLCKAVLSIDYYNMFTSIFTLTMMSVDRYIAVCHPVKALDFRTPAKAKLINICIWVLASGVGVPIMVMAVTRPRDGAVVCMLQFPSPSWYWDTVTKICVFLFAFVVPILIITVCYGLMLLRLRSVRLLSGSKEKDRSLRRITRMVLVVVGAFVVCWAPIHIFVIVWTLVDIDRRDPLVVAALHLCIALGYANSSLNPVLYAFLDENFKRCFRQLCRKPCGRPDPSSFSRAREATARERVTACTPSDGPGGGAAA

According to patent publication US20260174855A1 (priority 2022, published 2026):

Biological target: hDOR (Homo sapiens, UniProt P41143)
Assay: [35S]GTPγS binding, G-protein activation
Format: biochemical
Conditions: determined from single-concentration (1 μM) experiments

## DPDPE
  Emax (% of vehicle): *172.00 % of vehicle
